# Literature values in patent publication US12151062B2, “Compositions and devices to administer pharmaceutical compositions nasally” (BOARD OF REGENTS, THE UNIVERSITY OF TEXAS SYSTEM, priority 2016, dated 2024).
# Key:
# [1] = rats; for DTE: mucoadhesive nanoemulsion (0.5% chitosan) i.n.
# [2] = mouse, in vivo, iv
SMILES,brain uptake (drug accumulation in the brain) compared to i.n. solution alone ([1]; PLGA nanoparticles i.n.),drug accumulation in the brain compared to drug solution given intravenously ([1]; PLGA nanoparticles i.n.),DTE ([1]; i.v. control risperidone nanoemulsion),DTE [1],brain AUC compared to i.v. solution [2],"brain AUC values, SLNs intranasally vs intravenously [2]"
Cc1cc2c(s1)Nc1ccccc1N=C2N1CCN(C)CC1 [Olanzapine],10.86 times,6.35 times,,,,
Cc1nc2n(c(=O)c1CCN1CCC(c3noc4cc(F)ccc34)CC1)CCCC2 [Risperidone],,,476,DTE-476%,10-fold,similar

# Like-named read-outs stand apart in the source and are kept apart here.
